# PubChem BioAssay AID1230 (PCMD, 2008)
# By UniProt entry, the sequences of proteins in these tests, tags left out.
# UniProt Q00987, whole entry: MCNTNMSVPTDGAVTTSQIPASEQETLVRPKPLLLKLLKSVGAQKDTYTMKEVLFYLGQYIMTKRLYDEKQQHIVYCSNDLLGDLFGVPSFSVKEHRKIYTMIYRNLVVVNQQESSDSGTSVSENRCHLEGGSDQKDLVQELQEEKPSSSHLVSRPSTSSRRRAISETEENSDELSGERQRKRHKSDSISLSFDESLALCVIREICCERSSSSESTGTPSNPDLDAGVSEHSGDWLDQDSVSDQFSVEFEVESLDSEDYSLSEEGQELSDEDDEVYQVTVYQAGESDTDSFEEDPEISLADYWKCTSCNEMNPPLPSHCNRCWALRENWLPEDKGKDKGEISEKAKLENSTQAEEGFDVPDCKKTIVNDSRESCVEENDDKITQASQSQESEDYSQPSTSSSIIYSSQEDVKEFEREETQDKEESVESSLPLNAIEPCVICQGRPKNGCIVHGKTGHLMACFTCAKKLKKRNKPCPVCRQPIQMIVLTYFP
# This is a selection; strong and weak results do not stand in their true shares. Some salts and complexes are drawn in separate pieces, as the source files them; their charges need not balance. Active and inactive are the calls of the source.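 Rule for the calls: active = signal enhancement of 30% or more; inactive = the rest.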
# Target: E3 ubiquitin-protein ligase Mdm2 (Homo sapiens) (UniProt Q00987)
# Test: MDM2-luciferase reporter signal enhancers, primary screen, MDM2 E3 ligase inhibitor project, cell-based, luminescence, 1536-well (AID 1230);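 note: luminescence tracks abundance of the self-degrading MDM2-luciferase fusion protein; higher signal means inhibition of MDM2 E3 ligase activity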
# Conditions: cell-based MDM2 ubiquitination luciferase reporter, 2 h; at 5 µM; hits give high values; 0 = plate control, 100 = twice control, blank-subtracted
# Method in brief: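 Test system: stable mammalian line carrying autodegrading MDM2–luciferase fusion reporter; quantity: 2000 cells in each well; times: 4 h cell settling then 2 h compound exposure, 37 °C; detection: luminescence with SteadyLite reagent, 15 min at room temperature; evaluation: percent signal gain over controls, blank-subtracted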
row,Structure (SMILES),signal enhancement
1,CC(C)(C)c1ccc(OP(C)(=O)O)cc1,inactive: -15.3%
2,COc1ccccc1OP(C)(=O)Nc1ccccc1Br (stereo not drawn),inactive: -1.98%
3,CP(=O)(Nc1ccc(Cl)cc1)Oc1ccc(F)cc1 (stereo not drawn),inactive: 21%
4,CN(C)C(=O)c1c([N+](=O)[O-])cc([N+](=O)[O-])cc1[N+](=O)[O-],inactive: 9.58%
5,CCN(CC)CC(O)COC(=O)C(O)(c1ccccc1)C1CCCCC1 (stereo not drawn),inactive: -19.8%
6,COc1ccc(OP(C)(=O)Nc2ccc(Br)cc2)cc1 (stereo not drawn),inactive: -6.97%
7,O=C(OCCCN1CCCC1)C(O)(c1ccccc1)C1CCCCC1 (stereo not drawn),inactive: -8.98%
8,CP(=O)(Oc1ccccc1)N1CCOC1=O (stereo not drawn),inactive: 8.03%
9,CCc1ccc(OP(C)(=O)Nc2cccnc2)cc1 (stereo not drawn),inactive: -5.46%
10,CCOC(=O)c1ccc(NP(C)(=O)Oc2ccc(Cl)cc2)cc1 (stereo not drawn),inactive: 0.43%
11,CP(=O)(OC12CC3CC(CC(C3)C1)C2)OC12CC3CC(CC(C3)C1)C2,inactive: -1.56%
12,Cc1nc2ccc3ccccc3c2o1.O=[N+]([O-])c1cc([N+](=O)[O-])c(O)c([N+](=O)[O-])c1,inactive: -16.1%
13,CP(=O)(OCCOc1ccccc1)OCCOc1ccccc1,inactive: -2.23%
14,CP(=O)(Nc1ccc(Cl)cc1Cl)Oc1ccccc1 (stereo not drawn),inactive: 7.35%
15,Cc1cc(C)cc(OP(C)(=O)Nc2cccc(C(F)(F)F)c2)c1 (stereo not drawn),inactive: 0.3%
16,COc1ccccc1OP(C)(=O)Nc1ccc(C)c(C)c1 (stereo not drawn),inactive: -13.2%
17,COc1ccc(OP(C)(=O)Nc2ccccc2Br)cc1 (stereo not drawn),inactive: -4.07%
18,O=[N+]([O-])c1cc([N+](=O)[O-])c(Nc2ccccn2)c([N+](=O)[O-])c1,inactive: 7.73%
19,Cc1c(NP(C)(=O)Oc2ccc(C(C)C)cc2)c(=O)n(-c2ccccc2)n1C (stereo not drawn),inactive: -15.3%
20,CP(=O)(Nc1ccccn1)Oc1ccccc1 (stereo not drawn),inactive: -7.65%
21,COc1ccccc1OP(C)(=O)Nc1ccc(C)cc1C (stereo not drawn),inactive: -9.69%
22,CCc1ccc(OP(C)(=O)O)cc1,inactive: -21.8%
23,COc1ccccc1OP(C)(=O)Nc1ccc(Br)cc1 (stereo not drawn),inactive: -4.12%
24,COc1ccc(OP(C)(=O)Nc2ccccn2)cc1 (stereo not drawn),inactive: -13.9%
25,CN(C)CCOC(=O)C(O)(c1ccccc1)C1CCCC1 (stereo not drawn),inactive: -12.9%
26,O=C(OC1CN2CCC1CC2)c1ccc([N+](=O)[O-])cc1 (stereo not drawn),inactive: -6.7%
27,O=C(OCCN1CCN(CCOCc2ccccc2)CC1)C(O)(c1ccccc1)c1ccccc1,inactive: -6.6%
28,COc1ccc2c(c1O)-c1c(O)c(OC)cc3c1[C@H](C2)[N+](C)(C)CC3.O=[N+]([O-])c1cc([N+](=O)[O-])c([O-])c([N+](=O)[O-])c1[O-],inactive: -3.03%
